Sequences of proteins named here, by UniProt entry; tags and fusion partners are left off.
UniProt Q8TD30, whole entry: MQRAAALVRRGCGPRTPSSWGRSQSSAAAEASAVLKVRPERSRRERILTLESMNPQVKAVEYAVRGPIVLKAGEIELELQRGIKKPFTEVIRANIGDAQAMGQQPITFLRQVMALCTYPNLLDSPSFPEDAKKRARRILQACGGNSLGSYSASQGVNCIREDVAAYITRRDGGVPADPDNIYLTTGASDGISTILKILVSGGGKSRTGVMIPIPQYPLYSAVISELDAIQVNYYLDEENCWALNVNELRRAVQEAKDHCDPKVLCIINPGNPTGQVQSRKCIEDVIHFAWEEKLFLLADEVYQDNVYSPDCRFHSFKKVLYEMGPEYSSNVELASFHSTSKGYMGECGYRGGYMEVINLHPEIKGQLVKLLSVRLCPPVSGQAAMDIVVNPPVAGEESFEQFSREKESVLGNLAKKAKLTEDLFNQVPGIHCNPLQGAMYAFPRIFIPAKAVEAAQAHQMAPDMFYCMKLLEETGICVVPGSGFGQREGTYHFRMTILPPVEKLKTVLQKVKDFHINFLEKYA

The entries are a selection whose mix differs from that of the whole data set. Results filed as inconclusive are left out. Activity calls are given as the source filed them. The call rests on the fitted dose curve; in most records, active means well fitted inhibition curve with a large enough effect; inconclusive means small, poorly fitted or top-dose-only effect; inactive means flat fitted curve, though single readings scatter.
Each compound was assayed against Alanine aminotransferase 2 (Homo sapiens) (UniProt Q8TD30) (assay: Primary qHTS assay for inhibitors of Glutamate pyruvate transaminase 2 (GPT2)). Details: Recombinant GPT2, coupled pyruvate oxidase/HRP Amplex Red fluorescence; series mostly up to 57.7 µM; activity change, negative = inhibition: at the top concentration.
Procedure: Assay Provider: Zhenghe John Wang Ph.D.
Case Western Reserve University, Cleveland OH
Glutamate pyruvate transaminase 2 (GPT2) catalyzes the reversible transamination of glutamate and pyruvate to provide a-ketoglutarate and alanine. We have optimized an assay for GPT2 enzymatic activity that couples pyruvate formation to detection of fluorescence using an established pyruvate oxidase/horseradish peroxidase / Amplex Red system.
Screening conditions were 250uM a-KG, 2mM L-alanine, and 10ng/uL GPT2 in […] of solution; 10uL of Amplex reaction mix (outlined below) were added so that final concentrations of Amplex reagents in 50uL were 0.2mM ThPP, 0.2U/mL PO and HRP, and 50uM Amplex.
NOTE: The volume of GPT2 in the system depends on the activity of it. The activity is different every batch. You need to test the activity before the assay. For full plate assay with automation, plate 20uL of GPT2 buffer to pin into, then add 10uL of GPT2 dilution followed immediately by 10uL of substrate dilution. 2 Columns of the plate were devoted to GPT2 buffer ([…] PH7.5, 0.0001% Tween) + 50uM AOA (known GPT2 inhibitor) to serve as a positive control. Complete the assay as normal. Amplex-red buffer: […] PH7.5, 1 mM EDTA, 1 mM MgCl2.
1. Combine a-KG and L-alanine at desired concentrations and incubate for at least 10 minutes at 37C. Stocks of L-alanine and a-KG are diluted in distilled water. However, the stocks were diluted in GPT2 buffer for the assay.
2. Prepare GPT2 dilution at the desired concentration in GPT2 buffer.
3. Plate 40uL of GPT2 dilution with 40uL of substrate dilution and let incubate for 30 minutes at room temperature.
4. Add 20uL of Amplex reaction mix prepared as follows: 1.5uL 200U/mL Horseradish Peroxidase, 200mM Thiamine Pyrophosphate, 200U/mL Pyruvate Oxidase; 7.5uL 10mM Amplex Red; 288uL Amplex Buffer.
5. Incubate for 30 minutes at room temperature in the dark, then image using AM_Amplex_Fluorescence on plate reader nearest the window.
`CCOC(=O)C(=O)CBr` was tested, and the Potency was active: 4.85 µM. `CCOC(=O)N1CCC(=O)CC1` was tested, and the “activity change, negative = inhibition” value was inactive: -6.96%. `CC(=O)N1CCc2ccc(N(C(=O)/C=C/c3cccc(C#N)c3)C3CCN(CCC4CCCC4)CC3)cc21` was tested, and the “activity change, negative = inhibition” value was inactive: -22.6%. For `CCC(=O)N(c1ccccc1)C1CCNCC1`, the “outcome” value was “inactive”.

— PubChem BioAssay AID1671188 (National Center for Advancing Translational Sciences (NCATS), 2021)
Further: nearly all actives have a fitted effect of over 60% in size.
On the % scale 0 is the no-effect control and ±100 the full control effect; potency means the concentration at half of the fitted maximal effect.
